## AlphaSeq binding of Ab-14 light chain variants to a spike HR2 peptide

Target: peptide PDVDLGDISGINAS, taken from heptad repeat 2 (HR2) of SARS-CoV-2 spike.

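The starting antibody came from a phage panning campaign against this peptide. Variants in AAYL50 differ from the parent at up to three CDR positions; double and triple changes were sampled at random. Affinity was read by AlphaSeq, a pooled yeast mating assay with surface-displayed partners. After mating in shaken culture at 30 °C for 16 h, diploids were selected and their barcode pairs sequenced. Scores were corrected for input abundance and mapped to Kd with protein pairs of known affinity run in the same pool. Mating was done three times.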

Parent scFv Ab-14: VH joined to VL by three GGGGS repeats. Changes lie in the light chain CDRs alone.
VH: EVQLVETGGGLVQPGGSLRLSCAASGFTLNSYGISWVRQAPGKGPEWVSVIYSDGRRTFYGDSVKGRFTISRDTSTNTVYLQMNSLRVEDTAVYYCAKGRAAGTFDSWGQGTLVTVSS
VL: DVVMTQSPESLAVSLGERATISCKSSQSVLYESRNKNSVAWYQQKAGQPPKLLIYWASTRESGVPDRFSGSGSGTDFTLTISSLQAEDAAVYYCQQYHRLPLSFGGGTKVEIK

Positions count from residue 1 of the parent VL; Q27E puts E in place of Q. Every variant below is changed at R99 of the VL (sequential numbering). Kd is apparent (estimated from mating counts) and averaged on the log scale over replicates with a signal. Smaller is tighter. An entry "no signal" has no value in the source: the pair was not observed among the diploids in any replicate. This suggests poor binding but is not conclusive. Parent in this assay: reference entry 4.4 nM, copy in this library 48 nM.

changes	Kd (apparent)	detected	signal with controls
Q27E/Y97N/R99A	no signal	0/3	1/9
A40L/R99D/L102T	180 µM	3/3	3/9
S33N/R99C/L102C	22 nM	3/3	3/9
S58K/E61S/R99T	80 µM	3/3	2/9
E32W/R60Y/R99D	no signal	0/3	0/9
Q27W/A57V/R99M	620 nM	3/3	1/9
R99E/S103A	16 nM	3/3	0/9
Y31G/R34T/R99M	2.9 nM	3/3	3/9
Q27S/Q95W/R99W	no signal	0/3	1/9
S26V/N35F/R99A	1.2 µM	3/3	3/9
K36E/R99M	11 nM	3/3	0/9
A57Y/E61F/R99L	no signal	0/3	1/9
S58R/H98N/R99N	6.6 µM	3/3	2/9
K24G/R34P/R99Q	14 nM	3/3	0/9
S33C/N35P/R99T	no signal	0/3	0/9
Q27N/A57H/R99D	110 µM	1/3	2/9
R99G/L100Q	no signal	0/3	1/9
V29N/S58W/R99Y	no signal	0/3	0/9
E61G/Y97L/R99V	no signal	0/3	0/9
A57L/Q95W/R99G	no signal	0/3	3/9
K24G/V39W/R99L	9.8 µM	3/3	1/9
S28G/K36E/R99V	240 nM	3/3	5/9
K24S/S26L/R99Q	53 nM	3/3	0/9
A40S/R99F	no signal	0/3	3/9
Q95H/R99A/L102F	no signal	0/3	0/9
Y31N/R60Y/R99L	47 nM	2/3	0/9
A40H/T59D/R99E	no signal	0/3	0/9
N35M/A40Q/R99T	no signal	0/3	1/9
V29G/E32N/R99S	80 nM	3/3	3/9
Q95A/R99W	no signal	0/3	2/9
S38L/R99T/L102T	no signal	0/3	1/9
E32Q/E61Q/R99C	18 µM	1/3	2/9
S28T/A40E/R99G	28 µM	2/3	7/9
Y97D/R99D/P101H	36 µM	1/3	0/9
A57V/E61V/R99F	21 nM	3/3	4/9
V39I/T59N/R99S	no signal	0/3	1/9
R34L/A57C/R99A	170 nM	1/3	0/9
R34W/V39P/R99G	no signal	0/3	1/9
K24D/S26D/R99S	24 µM	2/3	0/9
S25V/T59H/R99W	6.6 nM	3/3	0/9
S26P/V39C/R99G	no signal	0/3	2/9
N35F/N37Y/R99Q	35 nM	3/3	1/9
Q95I/H98C/R99G	6.2 µM	1/3	4/9
Q27I/Y97N/R99Q	63 µM	2/3	1/9
S25L/S58Q/R99G	9.8 nM	3/3	0/9
S58G/R99F/L102G	10 µM	1/3	2/9
S25H/R99A	no signal	0/3	0/9
K24T/R34P/R99E	35 nM	3/3	0/9
S33Y/Q95K/R99F	120 nM	3/3	2/9
Y31K/S62D/R99C	5.0 nM	3/3	2/9
T59L/S62T/R99L	2.1 µM	2/3	2/9
S25D/S28N/R99N	no signal	0/3	0/9
S38C/Q96E/R99F	no signal	0/3	2/9
R99N	14 nM	3/3	3/9
S25Y/A57R/R99M	86 nM	2/3	0/9
V29Q/K36S/R99S	6.2 nM	3/3	1/9
Q27D/S62F/R99Q	no signal	0/3	0/9
A57T/Y97D/R99P	no signal	0/3	0/9
R60F/Y97L/R99A	11 µM	1/3	4/9
K24A/L30S/R99F	640 nM	3/3	3/9
S26R/R60A/R99C	3.8 µM	1/3	2/9
Y31L/S33E/R99H	2.9 nM	3/3	3/9
V29N/S33I/R99G	380 nM	3/3	1/9

Picked from the list: the 6 lowest averages where every replicate gave a value.

changes	Kd (apparent)	detected	signal with controls
Y31G/R34T/R99M	2.9 nM	3/3	3/9
Y31L/S33E/R99H	2.9 nM	3/3	3/9
Y31K/S62D/R99C	5.0 nM	3/3	2/9
V29Q/K36S/R99S	6.2 nM	3/3	1/9
S25V/T59H/R99W	6.6 nM	3/3	0/9
S25L/S58Q/R99G	9.8 nM	3/3	0/9

Nonspecific signal, from three strains lacking the peptide, appeared in 18% of pairings of library AAYL50, centred on 15 µM (5% of these signals below 970 nM); values are not corrected for it. Also given: how often the same scFv was detected with the empty control strains.

The measurements come from Engelhart et al. 2022 (doi:10.1038/s41597-022-01779-4) through the FLAb antibody collection.